Experimental data reported in US6579881B2 (Eisai Co., Ltd., priority 1997, dated 2003).
Structures can show the parent of a compound that is named as a salt. Where two headings read alike, the source gives them in different places.

System: Straub's tail reaction (hyper-muscle tone in the tail)
Assay: Morphine induced Straub's tail phenomenon in mice
Format: in vivo
Conditions: Mus musculus

Compound: COc1ccc2c(c1)C(N1CCN(CCc3ccc(F)cc3)CC1)CC2 (centres unmarked) [Example 250, 1-{4-[2-(4-fluorophenyl)ethyl]piperazin-1-yl}-6-methoxyindan Hydrochloride]
- minimal effective dose (ip, read-out: minimal effective dose i.p.): 10 mg/kg
- minimal effective dose (po, read-out: minimal effective dose p.o.): 30 mg/kg
